TSG101-PTAP inh – qHTS Assay for Iinhibitors of HIV-1 Budding by Blocking the Interaction of PTAP/TSG101; Fluorescence polarization, FITC-PTAP peptide / Tsg101 binding; Tumor susceptibility gene 101 protein (Homo sapiens), Q99816; AID 493005, 2010; 340,000 tested, under 10 active; Potency, µM (titrated, usually from 115 µM), without a hit: at the highest dose activity change, negative = inhibition, most hits filed as inhibitors; active means well fitted inhibition curve with a large enough effect in the main read-out, with a control signal flat, not every such curve was filed as active; inconclusive means small, poorly fitted or top-dose-only effect, or effect the other way, or a change in a side signal; inactive means no such curve, though single readings can be large or run the other way; further: potency means the concentration at half of the fitted maximal effect; % of control where 0% means no effect
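Tsg101 binding domain (10 uM final) was mixed with compound and a FITC-labeled PTAP peptide (50 nM final) in HEPES pH 7.5 buffer with NaCl, Tween 20, EDTA and TCEP; fluorescence polarization was read after 20 min at r.t.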
DRD3 antagonist – qHTS of D3 Dopamine Receptor Antagonist: qHTS; D(3) dopamine receptor (Homo sapiens), P35462; D3R cells, DiscoveRx beta-arrestin luminescence, antagonist mode; stronger effect = lower value; max response, negative = inhibition, %; 360,000 tested, 2.5% active; AID 652054, 2013; in the data active means max response below about -50%; inconclusive means no clear call, values can overlap the other calls; further: on the % scale 0 is the no-effect control and ±100 the full control effect
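Cells plated overnight at 1500 cells/well, then exposed to library compounds with dopamine controls for 90 minutes at 37 degrees C. DiscoveRx reagent added for 30–60 minutes at room temperature; luminescence read, quantitative HTS format.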
Rango complex inh – qHTS Assay for Inhibitors of Rango (Ran-regulated importin-beta cargo) - Importin beta complex formation. 340,000 tested, 0.031% active. Potency, µM (series often up to 92.2 µM), without a hit: at the top dose inhibition of complex formation. Rango CFP/YFP FRET sensor + importin beta, 45 min. Importin subunit beta-1 (Homo sapiens), Q14974;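 further: potency means the concentration at half of the fitted maximal effect; 0% = DMSO wells and 100% = buffer wells lacking importin beta; nearly all actives have a fitted effect of over 15% in size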
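FRET biosensor (snurportin 1 IBB flanked by EYFP and cerulean), 50 nM, with compound 5 min, then 0.125 microM importin beta in PBS, 1 mM DTT, 0.02% Tween-20, 0.1% BSA. CFP/YFP ratio read after 45 min at room temperature; pre-read flags interference.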
Rango release inh – qHTS Assay for Inhibitors of RanGTP induced Rango (Ran-regulated importin-beta cargo) - Importin beta complex dissociation; Potency, µM (doses to about 46.1 µM), without a hit: at the highest dose activity change, negative = inhibition; Biochemical FRET Rango-importin beta, RanGTP-induced dissociation; Snurportin-1 (Homo sapiens) + GTP-binding nuclear protein Ran (Homo sapiens) + Importin …; AID 540253, 2011; 340,000 tested, 0.071% active; further: potency means the concentration at half of the fitted maximal effect; % of control where 0% means no effect; nearly all actives have a fitted effect of over 45% in size
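Two FRET readings bracket the reaction: one 5 min after compound meets Rango–importin beta, another 45 min after RanGTP-RCC1 (0.6 uM Ran, 0.2 uM RCC1, 2 mM GTP) is added. Only the second defines inhibition.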
Mm-Cpn inhibitor – Inhibitors of TCP-1 ring complex (TRiC) of Methanococcus maripaludis (MmCpn): qHTS; Chaperonin Mm-Cpn (Methanococcus maripaludis); purified Mm-Cpn ATPase, ADP Transcreener TR-FRET; Potency, µM (top dose mostly 76.9 µM), inactives show top-dose activity, negative = inhibition, most hits filed as inhibitors; 330,000 tested, 0.031% active; active means well fitted inhibition curve with a large enough effect; inconclusive means small, poorly fitted or top-dose-only effect; further: potency means the concentration at half of the fitted maximal effect; on the % scale 0 is the no-effect control and ±100 the full control effect; nearly all actives have a fitted effect of over 80% in size
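Compound-treated chaperonin, 25 nM final, turns over 10 uM ATP at 37°C for 30 min following a 10 min preincubation; ADP generated competes with ADP-d2 for Eu-cryptate antibody, lowering FRET.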
DRD3 agonist – qHTS of D3 Dopamine Receptor Agonist: qHTS; D(3) dopamine receptor (Homo sapiens), P35462; D3R DiscoveRx beta-arrestin cells, luminescence, 90 min; max activation, %; 410,000 tested, 0.58% active; AID 652048, 2013; in the data active means max activation above about 30%; further: 0% is about no effect
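Agonist mode: compounds and dopamine controls were applied to plated cells for 90 min at 37 degrees C after an overnight attachment at 1500 cells/well. Luminescent read-out followed 30 - 60 minutes at room temperature with DiscoveRx detection reagent.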
* marks the source's active call; other numbers are inactive results; ? = inconclusive; / = no result. An excerpt weighted towards active compounds, which were near 2.9% of everything screened. Unless noted, the call rests on the fitted dose curve.

Chains of the proteins cited; added tags and fusions are not shown.
D(3) dopamine receptor (Homo sapiens), P35462, UniProt P35462, whole entry, looked up: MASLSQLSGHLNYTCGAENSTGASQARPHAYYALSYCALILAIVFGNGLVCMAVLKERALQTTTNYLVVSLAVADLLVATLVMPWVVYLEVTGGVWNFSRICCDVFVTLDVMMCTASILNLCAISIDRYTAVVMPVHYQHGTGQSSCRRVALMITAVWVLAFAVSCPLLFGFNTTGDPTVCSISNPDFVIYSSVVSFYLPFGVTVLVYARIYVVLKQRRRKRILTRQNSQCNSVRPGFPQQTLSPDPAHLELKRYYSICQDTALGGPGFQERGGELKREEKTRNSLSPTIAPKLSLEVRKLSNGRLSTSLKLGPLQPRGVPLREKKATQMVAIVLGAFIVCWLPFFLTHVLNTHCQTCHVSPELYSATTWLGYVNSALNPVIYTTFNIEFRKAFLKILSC
Importin subunit beta-1 (Homo sapiens), Q14974, UniProt Q14974, whole entry, looked up: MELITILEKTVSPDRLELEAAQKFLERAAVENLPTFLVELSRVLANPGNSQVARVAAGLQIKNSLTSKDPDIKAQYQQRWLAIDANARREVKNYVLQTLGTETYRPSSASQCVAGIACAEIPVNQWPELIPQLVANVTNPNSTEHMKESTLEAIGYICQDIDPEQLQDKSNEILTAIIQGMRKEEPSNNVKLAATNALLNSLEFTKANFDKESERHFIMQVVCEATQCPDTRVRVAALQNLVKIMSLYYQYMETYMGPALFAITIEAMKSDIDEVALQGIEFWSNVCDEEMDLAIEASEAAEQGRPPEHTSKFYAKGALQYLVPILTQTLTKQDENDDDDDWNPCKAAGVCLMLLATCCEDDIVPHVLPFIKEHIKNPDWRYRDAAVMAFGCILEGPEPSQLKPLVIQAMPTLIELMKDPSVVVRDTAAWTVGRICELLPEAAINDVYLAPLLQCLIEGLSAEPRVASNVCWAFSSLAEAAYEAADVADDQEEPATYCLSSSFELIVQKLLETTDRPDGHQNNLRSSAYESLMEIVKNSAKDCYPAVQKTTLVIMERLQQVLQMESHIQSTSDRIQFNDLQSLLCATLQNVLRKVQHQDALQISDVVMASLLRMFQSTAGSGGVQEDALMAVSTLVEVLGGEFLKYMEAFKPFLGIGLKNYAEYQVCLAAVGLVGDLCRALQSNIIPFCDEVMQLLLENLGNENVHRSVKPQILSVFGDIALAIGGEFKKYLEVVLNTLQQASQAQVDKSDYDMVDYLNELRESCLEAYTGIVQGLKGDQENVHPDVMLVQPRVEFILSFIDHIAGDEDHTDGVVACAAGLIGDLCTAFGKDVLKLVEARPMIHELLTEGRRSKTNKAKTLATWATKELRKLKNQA

Abbreviations: A = TSG101-PTAP inh; B = DRD3 antagonist; C = Rango complex inh; D = Rango release inh; E = Mm-Cpn inhibitor; F = DRD3 agonist
#1 O=C(NCC(c1ccco1)S(=O)(=O)c1ccc(Cl)cc1)c1ccccc1F (stereo not given)
  A: /; B: /; C: /; D: /; E: /; F: 10
#2 Oc1cc(Nc2ccncc2)cc2cccnc12
  A: -2%; B: /; C: 41µM*; D: ?; E: -1%; F: /
#3 CCN(CC)C(=O)c1cc(-c2ccc(Cl)cc2)on1
  A: /; B: /; C: /; D: /; E: /; F: -1
#4 COc1cccc(-c2ncc3ccccn23)c1
  A: -2%; B: 20; C: 2%; D: -1%; E: -7%; F: 1
#5 COc1cc(OC)cc(-c2ncc3ccccn23)c1
  A: -3%; B: -58*; C: -2%; D: 2%; E: -8%; F: -9
#6 O=C(O/N=C\c1ccc(N2CCCCC2)c([N+](=O)[O-])c1)c1ccc(Cl)cc1Cl
  A: -2%; B: -3; C: 0%; D: -13%; E: 1%; F: 3
#7 Nc1nnnn1/N=C/c1ccc(N2CCCCC2)c([N+](=O)[O-])c1
  A: -2%; B: -54*; C: 5%; D: 26%; E: -11%; F: -6
#8 CN1CCC(N(C)C(=O)c2cc(-c3ccccc3Cl)nc3ccccc23)CC1
  A: -3%; B: -60*; C: 2%; D: -5%; E: 0%; F: -11
#9 CN1CCC(N(C)C(=O)c2cc(-c3ccc(F)cc3)nc3ccccc23)CC1
  A: 0%; B: 23; C: 0%; D: -10%; E: -2%; F: -1
#10 CCCc1cc(C(=O)Nc2nccs2)cs1
  A: /; B: -51*; C: -1%; D: 13%; E: -3%; F: -6
#11 O=C(Nc1ccc(-c2nc3c(ccc4ccccc43)o2)cc1)c1ccco1
  A: -2%; B: 59; C: 2%; D: -21%; E: -2%; F: 46*
#12 O=C(Nc1ccc(-c2nc3cc(Cl)ccc3c(=O)o2)cc1)c1ccco1
  A: -1%; B: -21; C: 0%; D: 3%; E: 3%; F: 8
#13 O=C(N[C@@H](Cc1ccccc1)C(=O)N[C@@H](Cc1ccccc1)C(=O)O)OCc1ccccc1
  A: -5%; B: 0; C: 3%; D: 1%; E: -15%; F: 19
#14 O=C(N[C@@H](Cc1ccccc1)C(=O)CCl)OCc1ccccc1
  A: -4%; B: -94*; C: 0%; D: 6%; E: 0%; F: -66
#15 C[C@H]1CNC(=O)c2c(C(=O)N3CCN(C(=O)OC(C)(C)C)CC3)ncn21
  A: /; B: -55*; C: /; D: /; E: /; F: -13
#16 CCOC(=O)C1Nc2c(F)cc(C)cc2C2c3ccccc3CC12 (stereo not given)
  A: 4%; B: -54*; C: 8%; D: -10%; E: /; F: -16
#17 CCOC(=O)C1Nc2ccccc2C2c3ccccc3CC12 (stereo not given)
  A: -2%; B: -9; C: 9%; D: 19%; E: /; F: -16
#18 CC1(C)CC(=O)C/C(=N\NC(=O)C2CC23CCC3)C1 (stereo not given)
  A: 2%; B: 5; C: ?; D: -8%; E: 50µM*; F: -7
#19 CC1(C)CC(=O)C/C(=N\NC(=O)C2CC2c2ccccc2)C1 (stereo not given)
  A: 0%; B: -11; C: 0%; D: -23%; E: 2%; F: -3
#20 COc1ccc(Cn2c(O)c(C=Nc3ccc(O)cc3)c3ccccc3c2=O)cc1
  A: ?; B: -78*; C: ?; D: ?; E: 0%; F: -22
#21 COc1ccc(Cn2c(O)c(C=Nc3ccccc3)c3ccccc3c2=O)cc1
  A: 8%; B: -1; C: -3%; D: 0%; E: -1%; F: -5
#22 NC(N)=Nc1nc(CCN2C(=O)c3ccccc3C2=O)cs1
  A: -4%; B: 22; C: 1%; D: 10%; E: 1%; F: 48*
#23 Cc1nc(CCN2C(=O)c3ccccc3C2=O)cs1
  A: -4%; B: -8; C: -4%; D: -8%; E: -4%; F: -6
#24 O=C1c2ccccc2C(=O)N1CCc1csc(-c2ccc(F)cc2)n1
  A: -6%; B: -11; C: -3%; D: 7%; E: -5%; F: 30*
#25 COc1ccc(C)cc1NC(=O)Cn1c(=O)ccc2cc(S(=O)(=O)N3CCCC3)ccc21
  A: /; B: /; C: /; D: /; E: /; F: 2

Next structures follow.
Abbreviations: A = TSG101-PTAP inh; B = DRD3 antagonist; C = Rango complex inh; D = Rango release inh; E = Mm-Cpn inhibitor; F = DRD3 agonist
#26 O=C(CNC1CCCC1)Nc1ccc(S(=O)(=O)N2CCCCC2)cc1
  A: -1%; B: 0; C: 13%; D: -8%; E: 0%; F: -12
#27 Cc1ccc(S(=O)(=O)N2CCN(CC(=O)Nc3ccc(N4CCOCC4)cc3)CC2)cc1C
  A: -3%; B: -93*; C: 2%; D: 14%; E: 1%; F: 2
#28 CC(=O)NC(=S)Nc1ccc(S(=O)(=O)N2CCOCC2)cc1
  A: 1%; B: 8; C: -2%; D: ?; E: -1%; F: 4
#29 Cc1ccc(S(=O)(=O)N2CCOCC2)cc1NC(=O)CN1CCN(c2ccc(O)cc2)CC1
  A: 1%; B: 8; C: 2%; D: -1%; E: 2%; F: 3
#30 CC(C)(C)NNC(=S)Nc1ccc(S(=O)(=O)N2CCOCC2)cc1
  A: -4%; B: 6; C: -3%; D: -7%; E: -3%; F: 32*
#31 O=C(CNC1CCN(Cc2ccccc2)CC1)Nc1ccc(S(=O)(=O)N2CCCCC2)cc1
  A: 1%; B: -82*; C: 1%; D: 10%; E: 1%; F: -20
#32 O=C(CN1CCCCC1)Nc1ccc(S(=O)(=O)N2CCCCCC2)cc1
  A: -7%; B: -19; C: 0%; D: 11%; E: 2%; F: -1
#33 O=C(CN1CCN(c2ccc(O)cc2)CC1)Nc1ccc(S(=O)(=O)N2CCCC2)cc1
  A: -6%; B: 9; C: ?; D: -5%; E: -1%; F: 98*
#34 Cc1ccc(S(=O)(=O)N(C)C)cc1NC(=O)CN1C(=O)NC2(CCc3ccccc32)C1=O (stereo not given)
  A: /; B: 23; C: /; D: /; E: /; F: 6
#35 CN(C)c1ccc(Nc2ncnc3sc4c(c23)CCCC4)cc1
  A: /; B: /; C: /; D: /; E: /; F: -1
#36 O=C(Nc1cccc2c1CCCC2)c1cc(C2CCCCN2S(=O)(=O)c2cccs2)on1 (stereo not given)
  A: /; B: 6; C: /; D: /; E: /; F: 0
#37 O=C(CN1CCOCC1)Nc1ccc(S(=O)(=O)N2CCCCCC2)cc1
  A: 0%; B: 4; C: 0%; D: 0%; E: 1%; F: 31*
#38 Cc1cccc(C)c1OCC(=O)Nc1c(C(=O)c2ccc(Br)cc2)oc2ccccc12
  A: /; B: /; C: /; D: /; E: /; F: -13
#39 O=C(O)COc1ccc2nsnc2c1Cl
  A: 5%; B: -22; C: ?; D: ?; E: 6.3µM*; F: -20
#40 Cc1ccccc1N1CCN(Cc2cc3c(cc2[N+](=O)[O-])OCO3)CC1
  A: 2%; B: -8; C: 0%; D: ?; E: 1%; F: -17
#41 O=[N+]([O-])c1cc2c(cc1CN1CCN(c3ccccc3F)CC1)OCO2
  A: -6%; B: -52*; C: -4%; D: -3%; E: 1%; F: -26
#42 CCCCN(Cc1cc2ccccc2[nH]c1=O)C(=O)c1cccc(Cl)c1
  A: /; B: /; C: /; D: /; E: /; F: 6
#43 Cc1cccc(C)c1-n1ncc(C(=O)NC2CCCC2)c1C1CCN(C(=O)OC(C)(C)C)CC1
  A: /; B: /; C: /; D: /; E: /; F: 0
#44 CCN(CC)c1ccc(/C=C/c2cc(-c3ccccc3)c3ccccc3n2)cc1
  A: ?; B: 5; C: 3%; D: 0%; E: 35µM*; F: 5

Just DRD3 antagonist (2 entries from above):
no. | SMILES | DRD3 antagonist
30 | CC(C)(C)NNC(=S)Nc1ccc(S(=O)(=O)N2CCOCC2)cc1 | 6
40 | Cc1ccccc1N1CCN(Cc2cc3c(cc2[N+](=O)[O-])OCO3)CC1 | -8

Grouped by structure: the compounds so far containing a COOH group (2)
Abbreviations: A = TSG101-PTAP inh; B = DRD3 antagonist; C = Rango complex inh; D = Rango release inh; E = Mm-Cpn inhibitor; F = DRD3 agonist
#13 O=C(N[C@@H](Cc1ccccc1)C(=O)N[C@@H](Cc1ccccc1)C(=O)O)OCc1ccccc1
  A: -5%; B: 0; C: 3%; D: 1%; E: -15%; F: 19
#39 O=C(O)COc1ccc2nsnc2c1Cl
  A: 5%; B: -22; C: ?; D: ?; E: 6.3µM*; F: -20
